Earlier results in paper PMC5375023 (Neurochemistry international, 2017).

By UniProt entry, the sequences of proteins in these tests, tags left out. Where a name states a change or a piece, a line headed by the entry shows the natural chain unless it says otherwise.
UniProt Q99720, whole entry: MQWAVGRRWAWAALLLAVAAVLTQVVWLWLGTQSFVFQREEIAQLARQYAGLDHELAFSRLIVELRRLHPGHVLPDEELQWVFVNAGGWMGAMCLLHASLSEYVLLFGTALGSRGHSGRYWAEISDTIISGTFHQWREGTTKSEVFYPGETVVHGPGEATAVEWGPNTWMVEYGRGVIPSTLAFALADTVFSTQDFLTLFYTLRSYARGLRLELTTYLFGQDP

Molecular target: human S1R (Homo sapiens, UniProt Q99720)
Conditions: ref Lee et al., 2008; cited from earlier work

For (+)-SKF10047, the “affinity for the S1R, in words” value is listed as “relatively low affinity”.
